Test results reported in article PMC5569017, “Development of a novel immunoassay to detect interactions with the transactivation domain of p53: application to screening of new drugs” (Scientific Reports, 2017).

The chains behind the UniProt entries cited, without tags or fusion partners.
UniProt Q00987, whole entry: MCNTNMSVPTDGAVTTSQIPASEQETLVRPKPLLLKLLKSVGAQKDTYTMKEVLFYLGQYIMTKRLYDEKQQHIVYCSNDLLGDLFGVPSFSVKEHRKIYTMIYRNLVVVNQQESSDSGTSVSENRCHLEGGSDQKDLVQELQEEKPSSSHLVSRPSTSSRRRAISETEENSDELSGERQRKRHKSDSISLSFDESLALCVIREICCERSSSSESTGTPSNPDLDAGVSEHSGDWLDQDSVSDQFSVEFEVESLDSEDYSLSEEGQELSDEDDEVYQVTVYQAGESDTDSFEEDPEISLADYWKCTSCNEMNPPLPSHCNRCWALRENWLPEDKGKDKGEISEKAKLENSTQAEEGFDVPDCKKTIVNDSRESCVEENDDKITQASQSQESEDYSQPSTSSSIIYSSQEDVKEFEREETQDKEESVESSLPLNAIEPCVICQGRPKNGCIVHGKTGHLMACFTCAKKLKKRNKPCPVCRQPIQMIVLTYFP

Target: T1, p53-MDM2 interaction (Homo sapiens, UniProt Q00987)
T1 construct: made in house; host or cells: MDM2-GST: Escherichia coli BL21 (DE3), crude extract; p53-His: HEK293T cells transfected with pEnter-p53, crude lysate
Assay: AlphaLISA inhibitor screening assay, p53-MDM2 (cellular extracts with p53-His and MDM2-GST)
Format: biochemical
Settings: serial dilutions starting with 20 μM, 33.3 μg/well MDM2-GST extract, Fig. 4

COc1ccc(C2=N[C@@H](c3ccc(Cl)cc3)[C@@H](c3ccc(Cl)cc3)N2C(=O)N2CCNC(=O)C2)c(OC(C)C)c1 [Nutlin-3a] was tested, and the “course of AlphaLISA response signal with increasing inhibitor dose” value was “continued to rise rapidly”.
